Molecular target: Macrophage metalloelastase (Homo sapiens, UniProt P39900)
Test: Inhibition of MMP12 by fluorimetric assay
Procedure, shortened: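 Enzyme source was the catalytic domain of each MMP. Inhibition was reported as Ki values.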

Amino acid sequences for entries named in this document (tags omitted). A change or cut given only in a name is not applied to a line headed by its entry.
UniProt P39900: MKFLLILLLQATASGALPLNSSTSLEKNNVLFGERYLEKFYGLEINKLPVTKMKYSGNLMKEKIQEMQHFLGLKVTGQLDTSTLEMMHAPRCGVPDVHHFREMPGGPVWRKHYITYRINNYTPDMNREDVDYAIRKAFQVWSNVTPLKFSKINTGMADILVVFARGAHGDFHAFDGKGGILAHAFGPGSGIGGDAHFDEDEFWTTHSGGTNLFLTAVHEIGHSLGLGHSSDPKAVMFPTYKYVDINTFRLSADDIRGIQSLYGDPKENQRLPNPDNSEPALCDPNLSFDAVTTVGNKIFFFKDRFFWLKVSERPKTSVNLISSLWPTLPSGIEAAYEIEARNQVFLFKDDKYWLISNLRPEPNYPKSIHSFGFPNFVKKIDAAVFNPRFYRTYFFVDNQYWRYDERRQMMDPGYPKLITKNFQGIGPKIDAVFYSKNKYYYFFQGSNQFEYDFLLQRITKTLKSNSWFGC

O=C(CN(CCO)S(=O)(=O)c1ccc(-c2ccccc2)cc1)NO
Ki: 31 nM
